Measured values reported in US4755381A, “Klebsiella capsular polysaccharide vaccine” (Swiss Serum and Vaccine Institute Berne, priority 1986, dated 1988).

Test system: K. pneumoniae capsular type 2
Experiment: Protection of mice against fatal Klebsiella burn wound sepsis by IVIG preparations
Type: in vivo
Conditions: 500 mg/kg i.v.
Description: ^1 Significance refers to mortality as compared to the human
albumintreated control group. NS = not significant, p > 0.05. Calculated
The ability of Globuman and Klebsiella immune-IVIG to prevent fatal Klebsiella burn wound sepsis when used in a prophylactic manner was determined. Mice (18-20 g female, NMRI strain) each received graded doses of the IVIG preparations (5 mg/kg to 500 mg/kg) or human albumin at 500 mg/kg (Albuman, Swiss Serum and Vaccine Institute, Berne, Switzerland) intravenously in 0.2 ml. Approximately 24 hours later the mice were burned and infected with 60 K. pneumoniae capsular type 2 bacteria. The mortality rate for the group of mice which received human albumin as a control was 87%.

With “Human Albumin: human albumin (Albuman, Swiss Serum and Vaccine Institute), control” the “Mean time to death” value was 103.4 h, the “Mortality (%)” value was 87% and the “Mortality Nr. dead/total” value was 13/15.
